Test results published in ChEMBL document CHEMBL1132530, “Picking the S1, S1' and S2' pockets of matrix metalloproteinases. A niche for potent acyclic sulfonamide inhibitors” (Bioorg Med Chem Lett, 1999).

Molecular target: T1, Interstitial collagenase (Homo sapiens, UniProt P03956)
T1 sequence (P03956 whole entry): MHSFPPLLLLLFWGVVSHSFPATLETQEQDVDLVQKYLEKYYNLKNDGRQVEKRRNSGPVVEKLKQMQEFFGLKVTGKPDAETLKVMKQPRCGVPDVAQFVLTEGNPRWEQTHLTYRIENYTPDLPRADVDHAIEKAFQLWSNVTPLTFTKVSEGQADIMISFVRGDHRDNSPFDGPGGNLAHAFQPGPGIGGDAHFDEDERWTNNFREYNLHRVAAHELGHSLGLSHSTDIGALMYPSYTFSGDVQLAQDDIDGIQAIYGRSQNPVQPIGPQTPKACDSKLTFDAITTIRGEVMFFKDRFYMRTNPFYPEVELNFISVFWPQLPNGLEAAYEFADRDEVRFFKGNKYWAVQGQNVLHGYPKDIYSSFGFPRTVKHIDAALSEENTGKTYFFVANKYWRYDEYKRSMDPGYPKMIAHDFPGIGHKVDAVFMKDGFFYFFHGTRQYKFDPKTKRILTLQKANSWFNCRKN
Assay: Inhibition of matrix metalloprotease-1

- IC50: 96 nM
Compound: COc1ccc(S(=O)(=O)N(Cc2cccnc2)[C@@H](C(=O)NO)C(C)C)cc1 [CGS-27023A]
